Among the data in BindingDB's records for doi:10.1016/j.ejmech.2017.02.004 (China Pharmaceutical University, 2017) are IC50 values, retold here.

SMILES strings stand for the structures.

This assay is described as follows: Substrate activity at NQO1 in human A549 cells assessed as NQO1-mediated two-electron reduction of compound by measuring cell growth inhibition treated for 24 hrs measured after 72 hrs by MTT assay. (In general: Tetrazolium assays rely on reduction of a dye to a coloured formazan, in cell work by metabolically active cells.)

Usually IC50 stands for the concentration at which inhibition is half-maximal. Consider `CC1(C)CCC2=C(O1)c1ccccc1C(=O)C2=O` [R115 (Reactive Blue 2)], for which the concentration for half-maximal inhibition (IC50) came out at 3 µM.
